Assay results taken from US8338482B2, “Modulating notch1 signaling pathway for treating neuroendocrine tumors” (Wisconsin Alumni Research Foundation, priority 2007, dated 2012).

How the values were obtained:
Hedgehog pathway = details: murine models; cited from earlier work
Hedgehog signaling = details: 50 mg/kg/d i.p., 8 weeks

CC1=C2C[C@H]3[C@@H](CC=C4C[C@@H](O)CC[C@@]43C)[C@@H]2CC[C@]12O[C@@H]1C[C@H](C)CN[C@H]1[C@H]2C [Cyclopamine]
adverse side effects to the mice (Hedgehog pathway): no adverse side effects | in vivo NE tumor growth (Hedgehog signaling): growth inhibition and possible regression
